Patent publication US10024862B2, “Recognition of cellular target binding by a bioactive agent using intracellular bioluminescence resonance energy transfer” (Promega Corporation, priority 2012, dated 2018)

Chains of the proteins cited; added tags and fusions are not shown.
UniProt P53779, whole entry, species assumed: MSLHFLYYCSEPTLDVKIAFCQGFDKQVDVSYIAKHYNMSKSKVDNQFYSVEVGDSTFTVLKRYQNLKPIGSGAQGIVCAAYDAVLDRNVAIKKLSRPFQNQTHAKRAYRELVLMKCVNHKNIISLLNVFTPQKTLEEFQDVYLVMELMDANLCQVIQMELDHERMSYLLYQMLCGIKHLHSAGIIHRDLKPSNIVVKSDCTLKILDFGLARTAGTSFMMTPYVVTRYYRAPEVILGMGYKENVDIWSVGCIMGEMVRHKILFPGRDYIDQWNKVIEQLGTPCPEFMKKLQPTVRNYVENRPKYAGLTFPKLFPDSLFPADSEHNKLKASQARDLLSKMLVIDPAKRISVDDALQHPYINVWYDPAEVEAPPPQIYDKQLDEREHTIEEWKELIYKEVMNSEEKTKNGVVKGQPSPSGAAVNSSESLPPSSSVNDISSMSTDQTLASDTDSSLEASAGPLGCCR

Biological target: Jnk3 (Homo sapiens, UniProt P53779)
Conditions: BIRB-TOM tracer at 2 uM, cell-free, FIG. 19

affinity by competitive displacement: lower affinity
Structure (SMILES): Cc1ccc(-n2nc(C(C)(C)C)cc2NC(=O)Nc2ccc(OCCN3CCOCC3)c3ccccc23)cc1 [BIRB-796]
